This is an account of results in PubChem BioAssay AID1040 (The Scripps Research Institute Molecular Screening Center, 2008).

Amino acid sequences for entries named in this document (tags omitted).
UniProt P25929, whole entry: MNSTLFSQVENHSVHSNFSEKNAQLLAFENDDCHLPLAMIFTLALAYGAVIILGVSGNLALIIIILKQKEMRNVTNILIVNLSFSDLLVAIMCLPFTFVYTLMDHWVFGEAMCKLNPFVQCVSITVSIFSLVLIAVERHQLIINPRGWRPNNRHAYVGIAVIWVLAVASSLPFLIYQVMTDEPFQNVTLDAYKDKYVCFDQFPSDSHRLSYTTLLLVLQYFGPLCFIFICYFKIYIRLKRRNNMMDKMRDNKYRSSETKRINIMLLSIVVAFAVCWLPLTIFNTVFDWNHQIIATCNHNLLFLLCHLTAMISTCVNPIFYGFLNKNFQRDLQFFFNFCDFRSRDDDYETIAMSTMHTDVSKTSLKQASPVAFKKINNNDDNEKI

The entries are a selection whose mix differs from that of the whole data set. Active and inactive are the calls of the source.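 The calls were made as follows: active = inhibition above the campaign mean inhibition of all tested compounds plus 3 SD (cut at about 20% in these data); inactive = the rest.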

By inhibition is commonly meant the change of the read-out against control, counted positive when it falls.

This assay has as its target Neuropeptide Y receptor type 1 (Homo sapiens) (UniProt P25929). The assay can be described thus: blockers of human neuropeptide Y Y1 receptor – cell-based, primary screen (AID 1040).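 Also: 0% = DMSO wells given NPY plus isoproterenol and 100% = isoproterenol alone without NPY.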 As to conditions: HEK293-CNG Y1 cells, membrane potential fluorescence; at 3.6 µM; hits give high values; NPY at EC95, then isoproterenol.
Regarding `O=C(OCCN1CCN(CCOCc2ccccc2)CC1)C(O)(c1ccccc1)c1ccccc1`, the inhibition was inactive: 3.74%.

In the case of `CC(C)c1ccc(OP(C)(=O)Nc2ccc(SC(F)(F)F)cc2)cc1` (stereo not given), the inhibition is inactive: -0.5%. For `CP(=O)(Nc1ccccc1F)Oc1ccccc1` (stereo not given) the value was inactive: -4.3%; for `CCN(CC)CCCOC(=O)C(O)(c1ccccc1)C1CCCCC1` (stereo not given), inactive: 2.62%. For `CP(=O)(Nc1ccccc1)Oc1ccc(F)cc1` (stereo not given) the value was inactive: 7.2%; for `COc1ccc(OP(C)(=O)Nc2ccc(SC(F)(F)F)cc2)cc1` (stereo not given), inactive: 1.29%; for `CCOC(=O)c1ccc(NP(C)(=O)Oc2ccc(F)cc2)cc1` (stereo not given), inactive: 4.33%. For `O=[N+]([O-])c1cc([N+](=O)[O-])c(NCC2CCS(=O)(=O)C2)c([N+](=O)[O-])c1` (stereo not given) the value was inactive: 3.62%.

With `COc1ccc(OP(C)(=O)Nc2cccc(Br)c2)cc1` (stereo not given), the inhibition was inactive: 9.32%. For `COc1ccc(NP(C)(=O)Oc2ccccc2OC)cc1` (stereo not given), the inhibition was inactive: 1.53%. For `CN(C)CCOC(=O)C(O)(c1ccccc1)C1CCCCC1` (stereo not given) the value was inactive: 0.51%. For `CP(=O)(Nc1ccc2c(c1)OCCO2)Oc1ccccc1` (stereo not given) the value was inactive: -5.67%; for `Cc1ccccc1NP(C)(=O)Nc1ccccc1C`, inactive: -5.37%; for `CCOP(C)(=S)SCC(=O)NC(C)(CC)C(=O)O` (stereo not given), inactive: 8.26%. For `CP(=O)(Nc1ccc(Cl)cc1)Oc1ccc(F)cc1` (stereo not given) the value was inactive: 8.57%; for `COc1ccccc1OP(C)(=O)Nc1ccccc1Br` (stereo not given), inactive: -3.67%. Turning to `CC(C)(C)c1ccc(OP(C)(=O)O)cc1`, the inhibition is inactive: 1.93%. For `CN(C)C(=O)c1c([N+](=O)[O-])cc([N+](=O)[O-])cc1[N+](=O)[O-]` the value was inactive: -1.51%; for `CCN(CC)CC(O)COC(=O)C(O)(c1ccccc1)C1CCCCC1` (stereo not given), inactive: 10.9%; for `COc1ccc(OP(C)(=O)Nc2ccc(Br)cc2)cc1` (stereo not given), inactive: -4.29%. For `CP(=O)(Oc1ccccc1)N1CCOC1=O` (stereo not given) the value was inactive: 2.32%; for `CCc1ccc(OP(C)(=O)Nc2cccnc2)cc1` (stereo not given), inactive: -2.34%. For `COc1ccccc1OP(C)(=O)Nc1c(C)n(C)n(-c2ccccc2)c1=O` (stereo not given), the inhibition is inactive: -3.69%. For `CP(=O)(OC12CC3CC(CC(C3)C1)C2)OC12CC3CC(CC(C3)C1)C2` the value was inactive: 10.7%. The same measure for `CCOC(=O)c1ccc(NP(C)(=O)Oc2ccc(Cl)cc2)cc1` (stereo not given): inactive: -6.49%; for `Cc1nc2ccc3ccccc3c2o1.O=[N+]([O-])c1cc([N+](=O)[O-])c(O)c([N+](=O)[O-])c1`: inactive: 15%; for `CP(=O)(Nc1ccc(Cl)cc1Cl)Oc1ccccc1` (stereo not given): inactive: -2.61%. For `CP(=O)(OCCOc1ccccc1)OCCOc1ccccc1` the value was inactive: 17.5%; for `Cc1cc(C)cc(OP(C)(=O)Nc2cccc(C(F)(F)F)c2)c1` (stereo not given), inactive: -3.14%. For the compound `COc1ccc(OP(C)(=O)Nc2ccccc2Br)cc1` (stereo not given), the inhibition was inactive: -0.43%. On to `COc1ccccc1OP(C)(=O)Nc1ccc(C)c(C)c1` (stereo not given), for which the inhibition was inactive: 3.67%.

Regarding `Cc1c(NP(C)(=O)Oc2ccc(C(C)C)cc2)c(=O)n(-c2ccccc2)n1C` (stereo not given), the inhibition was inactive: -3.73%.

Regarding `O=[N+]([O-])c1cc([N+](=O)[O-])c(Nc2ccccn2)c([N+](=O)[O-])c1`, the inhibition is inactive: -0.68%. For `CCc1ccc(OP(C)(=O)O)cc1` the value was inactive: 17.9%; for `CP(=O)(Nc1ccccn1)Oc1ccccc1` (stereo not given), inactive: -1.66%; for `COc1ccccc1OP(C)(=O)Nc1ccc(C)cc1C` (stereo not given), inactive: 2.63%.

As for `CN(C)CCOC(=O)C(O)(c1ccccc1)C1CCCC1` (stereo not given), the inhibition was inactive: 4.1%. Regarding `COc1ccc(OP(C)(=O)Nc2ccccn2)cc1` (stereo not given), the inhibition was inactive: -2.63%. The same measure for `CCN(CC)CCCOC(=O)C(O)(c1ccccc1)c1ccccc1`: inactive: 3.89%. Regarding `CCOC(=O)c1ccc(NP(C)(=O)Oc2ccccc2)cc1` (stereo not given), the inhibition is inactive: 2.83%. `COc1ccccc1OP(C)(=O)Nc1ccc(C)cc1` (stereo not given): the inhibition is inactive: 0.52%. With `Cc1ccc(NP(C)(=O)Oc2ccccc2)c(C)c1` (stereo not given), the inhibition was inactive: -1.09%. The same measure for `COc1ccccc1OP(C)(=O)Nc1cc(Cl)ccc1C` (stereo not given): inactive: -5.63%; for `COc1ccc(OP(C)(=O)Nc2cccc(F)c2)cc1` (stereo not given): inactive: -0.63%.

As to `Cc1cc(C)cc(OP(C)(N)=O)c1` (stereo not given), the inhibition was inactive: 3.37%. For `CC(C)(C)c1ccc(OP(C)(=O)Nc2ccc(SC(F)(F)F)cc2)cc1` (stereo not given) the value was inactive: 2.92%; for `Cc1cccc(C)c1OP(C)(N)=O` (stereo not given), inactive: -2.4%; for `O=[N+]([O-])c1ccc2c(c1)C=Nc1ccccc1O2`, inactive: 4.5%.

Turning to `CP(=S)(Nn1cnnc1)Oc1ccccc1` (stereo not given), the inhibition is inactive: 1.27%. The same measure for `COc1ccccc1OP(C)(=O)Nc1ccccc1` (stereo not given): inactive: -3.3%; for `CP(=O)(Nc1ccccc1Br)Oc1ccccc1` (stereo not given): inactive: -1%; for `CCOP(C)(=S)SCC(=O)NC(C)C(=O)O` (stereo not given): inactive: -0.76%.

For `CCOC(=O)c1ccc(NP(C)(=O)Oc2ccc(OC)cc2)cc1` (stereo not given), the inhibition was inactive: -4.78%. As for `CP(=O)(Nc1ccccn1)Oc1ccc(Cl)cc1` (stereo not given), the inhibition was inactive: -1.35%. The same measure for `Cc1cccc(C)c1OP(C)(=O)Nc1ccc(SC(F)(F)F)cc1` (stereo not given): inactive: -8.28%; for `CP(=O)(Oc1ccccc1)OC(c1ccccc1)C(F)(F)F` (stereo not given): inactive: 3.82%.

As for `CP(=O)(NC(=O)Nc1ccccc1)Oc1ccccc1` (stereo not given), the inhibition was inactive: -2.93%.

In the case of `Cc1cc(C)cc(OP(C)(=O)Nc2ccc(SC(F)(F)F)cc2)c1` (stereo not given), the inhibition was inactive: -7.22%. For `Cc1nc2ccc3ccccc3c2s1.O=[N+]([O-])c1cc([N+](=O)[O-])c(O)c([N+](=O)[O-])c1` the value was inactive: 9.41%. The same measure for `O=[N+]([O-])c1cc([N+](=O)[O-])c(-n2nnc3ccccc32)c([N+](=O)[O-])c1`: inactive: 5.68%; for `COc1ccccc1OP(C)(=O)Nc1c(C)cccc1C` (stereo not given): inactive: 4.89%. For `CN1CCCCC1COC(=O)C1(O)c2ccccc2CCc2ccccc21` (stereo not given) the value was inactive: 2.82%; for `CCCOc1ccc(NP(C)(=O)Oc2ccc(Cl)cc2)cc1` (stereo not given), inactive: -2.08%. As to `CP(=O)(Nc1ccc(SC(F)(F)F)cc1)Oc1ccccc1` (stereo not given), the inhibition was inactive: -0.28%. For `CC1=NCCc2c1[nH]c1ccccc21.O=[N+]([O-])c1cc([N+](=O)[O-])c(O)c([N+](=O)[O-])c1` the value was inactive: 9.89%. The same measure for `Cc1cc(C)cc(OP(C)(=O)Nc2ccccn2)c1` (stereo not given): inactive: 4.4%.

As to `CP(=O)(Nc1cccc(Br)c1)Oc1ccccc1` (stereo not given), the inhibition was inactive: -1.79%. For `Cc1ccc(C)c(NP(C)(=O)Oc2ccccc2)c1` (stereo not given) the value was inactive: 3.79%; for `Cc1cc(C)cc(OP(C)(=O)Nc2ccc(C)cc2C)c1` (stereo not given), inactive: 4.21%; for `CCOC(=O)c1ccc(NP(C)(=O)Oc2cc(C)cc(C)c2)cc1` (stereo not given), inactive: -1.55%.
